Patent US6500222B2, “Diureides and their use” (priority 1999, dated 2002)

System: ryegrass
Settings: in vivo

## malonic acid diureide [Compound 1A]
  Remarks (plant damage): no plant damage
